Source: patent publication EP0702683B1, “06-SUBSTITUTED GUANINE DERIVATIVES, A PROCESS FOR THEIR PREPARATION AND THEIR USE IN TREATING TUMOUR CELLS” (Cancer Research Technology Limited, priority 1993, dated 1994)

How the values were obtained:
ATase [1] = biological target: T1, ATase (Homo sapiens, UniProt P16455); assay: In vitro ATase inactivation assay with purified recombinant human ATase; format: biochemical; design: made in house; settings: recombinant human ATase incubated with inactivator 1 hour at 37°C before substrate; read-out: I50
T1 sequence (P16455 1-207): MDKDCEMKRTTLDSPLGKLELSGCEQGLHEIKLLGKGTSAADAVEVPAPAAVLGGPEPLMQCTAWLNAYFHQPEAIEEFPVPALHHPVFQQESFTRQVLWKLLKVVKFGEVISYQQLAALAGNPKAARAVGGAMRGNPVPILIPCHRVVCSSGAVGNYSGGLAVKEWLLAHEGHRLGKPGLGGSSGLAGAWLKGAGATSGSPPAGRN
Protocol: The cDNA cloning and overexpression of the human ATase has been reported previously^23. Purification of the recombinant proteins was achieved either by affinity chromatography through a DNA-cellulose column as described by Wilkinson et al.,^25, 26, or by DEAE-cellulose ion-exchange chromatography. For the latter, the ATase protein was partially purified by ammonium sulphate precipitation (30 - 60%) and dialysed against 10 mM Tris-HCl pH 7.5, 1 mM DTT, 2 mM EDTA, 10% glycerol, before loading on a DEAF-cellulose column. The ATase was then eluted with a 0-0.1 M NaCl gradient.
Compounds to be tested were dissolved in DMSO to a final concentration of 10 mM and diluted just before use in buffer I containing 1 mg/ml bovine serum albumin (IBSA). Recombinant ATase was diluted in IBSA and titrated in order that the reaction be conducted under ATase, and not substrate, limiting conditions. In each assay, fixed amounts of ATase (60-75 fmol) were incubated with varying amounts of 0^6-benzylguanine, or test compound in a total volume of 200 µl of IBSA containing 10 µg of calf thymus DNA at 37°C for 1 hour. […] Following acid hydrolysis of the DNA as previously described^21 the [^3H]-methylated protein was recovered and quantitated by liquid scintillation counting. […]

ATase [2] = biological target: T1, ATase; assay: Inactivation of ATase activity in WiDr cells; format: cell-based; design: endogenous in cells; host or cells: Raji
Protocol: (§1) Mammalian cells were cultured under standard conditions. For example, Raji (a human lymphoblastoid cell line from a Burkitt's lymphoma) cells were grown in suspension culture in RPMI medium supplemented with 10% horse serum. […]
(§2) Cells were diluted to 10^6/ml in culture medium containing either the appropriate concentration of inactivator or an equivalent volume of vehicle (DMSO). […] ATase activity was determined as described above, in duplicate sonicated cell extracts and expressed as the percentage activity remaining based on that present in the untreated controls (for example 350-450 fm/mg in Raji cells).

ATase [3] = biological target: T1, ATase; assay: Inactivation of ATase activity in XP cells; format: cell-based; design: endogenous in cells; host or cells: Raji
Protocol: as §1, §2

ATase [4] = biological target: T1, ATase; assay: Inactivation of ATase activity in Raji cells; format: cell-based; design: endogenous in cells; host or cells: Raji
Protocol: Mammalian cells were cultured under standard conditions. For example, Raji (a human lymphoblastoid cell line from a Burkitt's lymphoma) cells were grown in suspension culture in RPMI medium supplemented with 10% horse serum. A375M cells are human melanoma cells from which the xenografts described below were established following subcutaneous injection into nude mice: WiDr cells are a human colon carcinoma cell line: Hamster+120 cells are a mitozolomide-selected subline of a Chinese hamster lung fibroblast V79 cell line called RJKO: Yoshida cells are a rat carcinosarcoma cell line and YRbus is a busulphan resistant subline thereof: XP cells are an SV40-transformed fibroblast cell line originally from the skin of a Xeroderma pigmentosum patient, pHMGhAT2b cells are a clone of these cells that have been transfected with a mammalian cell expression vector containing the human ATase cDNA and pHMGla cells are a clone that have been transfected with the expression vector only (i.e. one not containing the human ATase cDNA). Cell pellets were resuspended in cold (4°C) buffer I containing 2 µg/ml leupeptin and sonicated for 10 seconds at 12 µ peak to peak distance. After cooling in ice, the cells were sonicated for a further 10 seconds at 18 µ. […]

Q: For `Nc1nc(OCc2ccccc2)c2nc[nH]c2n1` [O^6-benzylguanine, reference compound], which IC50 (ATase [1]) is on record?
A: 40 nM

Q: What about the IC50 (ATase [2]) of the same compound?
A: > 90 nM

Q: And the IC50 (ATase [3])?
A: 70 nM

Q: And the IC50 (ATase [4]; Human Raji cells, 2 hours at 37°C (Table 5), read-out: Inactivation of ATase in Mammalian Cells I50(µM) Human Raji)?
A: 0.1 µM

Q: And the IC50 (ATase [4]; Raji cells, 2 hours at 37°C, read-out: Raji I50)?
A: 0.1 µM
